scFv variants of Ab-95 (light chain) against a SARS-CoV-2 spike peptide

Values reported by Engelhart et al. 2022, doi:10.1038/s41597-022-01779-4 (FLAb copy).

Antigen: PDVDLGDISGINAS, a 14-residue peptide of the SARS-CoV-2 spike HR2 region.

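The starting antibody came from a phage panning campaign against this peptide. In library AAYL52, one, two or three CDR residues were substituted; doubles and triples were drawn at random. AlphaSeq pools MATa yeast showing the antibodies with MATalpha yeast showing the peptide. Mating (16 h, 30 °C) was followed by selection of diploids and sequencing of their barcodes. Each replicate has its own calibration line, from reference interactions of the BCL2 family. Mating was done three times.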

Parent scFv Ab-95: VH joined to VL by the linker GGGGSGGGGSGGGGS. Changes lie in the light chain CDRs alone.
VH: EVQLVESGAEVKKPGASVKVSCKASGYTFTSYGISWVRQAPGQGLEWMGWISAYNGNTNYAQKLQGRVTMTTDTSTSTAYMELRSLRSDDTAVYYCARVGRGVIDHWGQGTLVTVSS
VL: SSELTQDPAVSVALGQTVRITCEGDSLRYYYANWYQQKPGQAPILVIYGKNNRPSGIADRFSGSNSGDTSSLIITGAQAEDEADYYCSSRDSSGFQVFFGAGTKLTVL

Changes read parent residue, position, new residue, counted from the first residue of the VL shown. Values are log10 of the apparent Kd in nM; lower means stronger binding. Replicates are averaged; those with no signal do not enter the mean. "ND" marks a missing value. The strain was present, yet no cells mated with the target were sequenced in that replicate, which points to weak or no binding. Empty control strains, which show no peptide, gave a signal in 28% of pairings with library AAYL52; the median was 3.91 and 95% of these signals were weaker than 2.90. No background was subtracted. For each scFv, signals with the empty controls are counted beside the result. For reference, the parent read 2.31 as the reference entry and 2.25 as a member of this library.

Y31N+S55W+S92I: 1.37, 1.39, 0.72 (mean 1.16; controls 1 of 9).
N51L+G94Y: 3.57, 3.93, ND (mean 3.75; controls 4 of 9).
D25Q+S89G+G94D: 3.06, 2.54, 2.89 (mean 2.83; controls 1 of 9).
S26D+Y31A+S89Y: 3.96, ND, ND (controls 3 of 9).
Y30Q+Y31E+S88T: 1.19, 1.11, 0.66 (mean 0.98; controls 2 of 9).
N33L+S88E+S93G: ND, 4.62, ND (controls 1 of 9).
R28G+R53M+P54N: 3.83, ND, ND (controls 1 of 9).
A32M+R53M+S89Q: 3.40, ND, 3.07 (mean 3.24; controls 0 of 9).
S26T+R53D+S92I: 4.29, 4.55, ND (mean 4.42; controls 2 of 9).
R53D+D91C+S93K: 4.31, 3.58, ND (mean 3.95; controls 3 of 9).
K50R+V97M: 4.08, 3.49, 3.95 (mean 3.84; controls 5 of 9).
R53D+Q96C+F98S: ND, 5.58, 4.40 (mean 4.99; controls 2 of 9).
N33C+P54N+G94I: 3.06, ND, ND (controls 0 of 9).
G49E+R90L: ND, ND, ND (controls 2 of 9).
A32S+N33G+N51Y: 5.20, 3.18, 3.06 (mean 3.81; controls 3 of 9).
G94F+Q96G+F98Y: 4.28, 3.91, ND (mean 4.09; controls 2 of 9).
Y29V+N51G+S92C: 3.06, 3.46, 2.83 (mean 3.12; controls 5 of 9).
L27C+R90N+F95Q: 3.55, ND, ND (controls 3 of 9).
E23R+Q96A: 2.65, 2.44, 2.32 (mean 2.47; controls 2 of 9).
Y29S+S89V+F98L: 2.52, 2.35, 2.16 (mean 2.34; controls 5 of 9).
D25T+Y29C+Q96A: 3.36, 3.21, 3.95 (mean 3.50; controls 4 of 9).
Y29N+S89W+D91H: 1.64, 1.66, 1.41 (mean 1.57; controls 4 of 9).
L27S+G49K+R53D: 3.64, 4.52, 3.32 (mean 3.83; controls 2 of 9).
S26C+G49V+S93D: ND, ND, ND (controls 1 of 9).
R28C+G94L+V97M: ND, ND, ND (controls 0 of 9).
E23G+Y30A+S92K: 1.15, 1.08, 0.54 (mean 0.92; controls 2 of 9).
G49C+R53K+G94D: 3.84, 4.22, ND (mean 4.03; controls 2 of 9).
N33E+S92A: 3.80, ND, ND (controls 7 of 9).
G24F+N33G+V97N: 3.19, 3.89, 4.33 (mean 3.80; controls 3 of 9).
N33F+S92E+V97G: ND, ND, 4.33 (controls 1 of 9).
N52G+F95P: ND, ND, ND (controls 5 of 9).
R28G+Y29T+V97L: 2.51, 3.14, 2.83 (mean 2.83; controls 4 of 9).
D25H+D91W+Q96T: ND, 3.97, ND (controls 0 of 9).
R53L+S93Q+G94D: 3.69, 3.08, ND (mean 3.38; controls 7 of 9).
K50D+S55H+Q96T: 2.62, 2.09, 2.50 (mean 2.40; controls 5 of 9).
G24R+R28V+F98W: 3.15, ND, 4.67 (mean 3.91; controls 7 of 9).
E23F+S89T+F95E: ND, 2.91, ND (controls 2 of 9).
Y31N+N51I+R53I: 4.11, 3.28, 3.17 (mean 3.52; controls 2 of 9).
S26V+Y29R+G94R: 2.82, 3.94, ND (mean 3.38; controls 2 of 9).
G24V+N33V+S88D: ND, ND, 3.35 (controls 3 of 9).

6 of these entries, quoted again:

changes,"replicates, log10 nM","log10 Kd (nM), mean",control signals
S26C+G49V+S93D,"ND, ND, ND",ND,1/9
G49E+R90L,"ND, ND, ND",ND,2/9
Y31N+N51I+R53I,"4.11, 3.28, 3.17",3.52,2/9
Y29V+N51G+S92C,"3.06, 3.46, 2.83",3.12,5/9
A32M+R53M+S89Q,"3.40, ND, 3.07",3.24,0/9
Y29N+S89W+D91H,"1.64, 1.66, 1.41",1.57,4/9